Results on five compounds are retold here after patent publication US20070184519A1, “Peptides, polypeptides, and proteins of reduced immunogenicity and methods for their production” (priority 2003, published 2007).

In one experiment the test system is MHC class II molecules. As to the kind of experiment: Panel of MHC class II binding assays: number of molecules bound or with reduced binding (degeneracy, cross-reactivity). Set-up: species or system human. As to conditions: for xm (1000 nM): number of MHC class II molecules bound at a threshold of 1000 nM or less, 17 molecules in the table.
A further experiment has as its system CD4+ T cells. As to the kind of experiment: Primary in vitro immunogenicity of analog peptide combinations and modified EPO proteins (DC-stimulated CD4+ T cells, IFN-γ ELISPOT). Particulars: DC pulsed with culture supernates; 5 donors. The format is cell-based, human.

“Also recorded” adds a separate entry of the source.

Regarding `CC[C@H](C)[C@H](NC(=O)[C@H](CC(N)=O)NC(=O)[C@H](CCC(=O)O)NC(=O)[C@H](C)NC(=O)[C@@H](N)CCC(=O)O)C(=O)N[C@H](C(=O)N[C@H](C(=O)NCC(=O)N[C@@H](CS)C(=O)N[C@@H](C)C(=O)N[C@@H](CCC(=O)O)C(=O)N[C@@H](Cc1c[nH]cn1)C(=O)N[C@@H](CS)C(=O)N[C@@H](CO)C(=O)N[C@@H](CC(C)C)C(=O)O)[C@@H](C)O)[C@@H](C)O`, the “xm (1000 nM)” value with MHC class II molecules is 0. Still for that read-out and setting: in the case of `CC[C@H](C)[C@H](NC(=O)[C@H](CC(N)=O)NC(=O)[C@H](CCC(=O)O)NC(=O)[C@H](CC(N)=O)NC(=O)[C@H](CC(C)C)NC(=O)[C@H](CO)NC(=O)[C@H](CS)NC(=O)[C@H](Cc1c[nH]cn1)NC(=O)[C@H](CCC(=O)O)NC(=O)[C@H](C)NC(=O)[C@H](CS)NC(=O)CNC(=O)[C@@H](NC(=O)[C@@H](N)[C@@H](C)O)[C@@H](C)O)C(=O)N[C@H](C(=O)O)[C@@H](C)O` it was 0. “Calcitonin: 32 amino acid polypeptide derived from salmon origin”: the “degenerate binding regions identified in the protein” value with MHC class II molecules (overlapping 15mer peptides) was “did not contain any degenerate binding regions; also recorded: did not contain any clear degenerate binding peptides”. With G3: EPO variant (T107D, S146D), in the experiment with CD4+ T cells, the “mean response, proteins” value was 6 SFC/5×10^4 effector cells and the “positive cultures / cultures tested, proteins” value is reported as 9/40. G4: EPO variant (L102G, T107D, S146D): in the experiment on CD4+ T cells, the “mean response, proteins” value is 9 SFC/5×10^4 effector cells and the “positive cultures / cultures tested, proteins” value is listed as 8/40.
